The text below walks through data of ChEMBL document CHEMBL3872267, “Design and synthesis of phosphoryl-substituted diphenylpyrimidines (Pho-DPPYs) as potent Bruton's tyrosine kinase (BTK) inhibitors: Targeted treatment of B lymphoblastic leukemia cell lines” (Bioorg Med Chem, 2017).

The chains behind the UniProt entries cited, without tags or fusion partners. Where a name states a change or a piece, a line headed by the entry shows the natural chain unless it says otherwise.
UniProt Q06187: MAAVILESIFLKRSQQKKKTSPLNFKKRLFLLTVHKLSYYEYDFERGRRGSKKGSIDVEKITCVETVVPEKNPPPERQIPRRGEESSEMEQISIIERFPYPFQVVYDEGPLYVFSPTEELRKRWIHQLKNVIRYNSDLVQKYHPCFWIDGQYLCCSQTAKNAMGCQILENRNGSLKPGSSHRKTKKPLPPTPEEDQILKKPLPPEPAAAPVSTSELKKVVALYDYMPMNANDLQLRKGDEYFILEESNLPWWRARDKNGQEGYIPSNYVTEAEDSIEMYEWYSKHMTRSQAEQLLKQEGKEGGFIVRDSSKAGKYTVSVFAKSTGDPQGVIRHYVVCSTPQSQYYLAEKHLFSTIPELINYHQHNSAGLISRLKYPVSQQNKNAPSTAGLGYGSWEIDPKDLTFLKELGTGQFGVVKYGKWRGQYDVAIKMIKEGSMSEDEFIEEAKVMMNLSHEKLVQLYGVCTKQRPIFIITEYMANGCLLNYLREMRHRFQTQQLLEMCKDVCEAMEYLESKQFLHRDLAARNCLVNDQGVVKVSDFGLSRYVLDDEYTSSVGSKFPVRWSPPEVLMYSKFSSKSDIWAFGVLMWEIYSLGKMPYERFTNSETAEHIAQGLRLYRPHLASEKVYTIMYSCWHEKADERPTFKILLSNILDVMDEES

This assay has as its target Tyrosine-protein kinase BTK (Homo sapiens, UniProt Q06187). The experiment in a line: Inhibition of human recombinant full-length N-terminal His-tagged BTK expressed in baculovirus infected Sf9 insect cells measured after 60 mins by ADP-Glo kinase assay.

As to `C=CC(=O)Nc1cccc(Nc2nc(Nc3ccc(OCCOC)cc3)ncc2F)c1` [SPEBRUTINIB], the IC50 turned out to be 0.72 nM.

The term IC50 denotes the concentration that gives 50% inhibition.
